This note sets out measurements from patent US20260240763A1, “Inhalable Serotonin Receptor Agonist Formulations” (Pinata Holdings Inc., priority 2022, published 2026).

The series in a line: Absorption of inhaled composition into the blood stream compared with oral administration. The note with it: encapsulated dry powder mixed with lactose, administered with an inhaler; subject; paper example in present tense. The series is classed as in vivo, human. As to the method:
A subject perceives an aura which indicates of the onset of a migraine. An aura usually occurs within an hour before head pain begins and generally lasts less than 60 minutes. […] The subject is administered a pharmaceutical composition to treat the upcoming migraine headache. The pharmaceutical composition comprises an encapsulated serotonin agonist which has been processed to an encapsulated dry powder using the methods described herein (e.g., spay drying). The dry powder is mixed with a lactose powder. The serotonin agonist is packaged in a capsule and is administered with an inhaler. The dosing regimen comprises an effective amount of a serotonin agonist to treat the allergic reaction.
A subject has migraine headaches. The subject is administered a pharmaceutical composition to treat the migraine headaches. […]
A subject is diagnosed with obesity. […] Effective treatment is determined by measuring the subject's weight prior to the first administration of the treatment as compared to the subject's weight after administration of the treatment for a specified time (e.g., one month). […]
A subject is diagnosed with an opioid addiction. […] The dosing regimen comprises an effective amount ibogaine to treat the opioid addiction as measured by the subject's self-assessment of opioid craving. […]

For ibogaine, the “absorption reaches the blood stream faster than a comparable pharmaceutical composition administered orally” value was “at least 5 ×”.
